ChEMBL document CHEMBL1944613, “Cloning, characterization and sulfonamide inhibition studies of an α-carbonic anhydrase from the living fossil sponge Astrosclera willeyana” (Bioorg Med Chem, 2012)

Biological target: T1, Astrosclerin-3 (Astrosclera willeyana, UniProt A6YCJ1)
T1 sequence (A6YCJ1 whole entry): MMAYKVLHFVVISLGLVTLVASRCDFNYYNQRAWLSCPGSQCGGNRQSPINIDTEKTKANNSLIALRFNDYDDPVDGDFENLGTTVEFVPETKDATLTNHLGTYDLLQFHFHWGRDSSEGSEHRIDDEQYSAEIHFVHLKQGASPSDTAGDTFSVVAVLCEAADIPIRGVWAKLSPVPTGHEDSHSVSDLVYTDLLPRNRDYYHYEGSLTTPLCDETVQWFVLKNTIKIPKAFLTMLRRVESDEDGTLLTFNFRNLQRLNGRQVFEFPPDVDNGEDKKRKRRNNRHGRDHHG

Compound	Ki [nM]
Nc1cc(C(F)(F)F)c(S(N)(=O)=O)cc1S(N)(=O)=O [2,4-DISULFAMYLTRIFLUOROMETHYLANILINE]	552
Nc1nnc(S(N)(=O)=O)s1	370
